# Bioassay records (PubChem)
# miR-21 FLuc: miR-21 reporter, rising signal | HeLa miR-21 FLuc reporter, luciferase, 48 h | Potency, µM (top dose mostly 38.3 µM), inactives show at the highest dose reporter change, positive = more light | 340,000 tested, under 10 active | AID 2288; active = well fitted rising curve with a large enough effect; inconclusive = small, poorly fitted or top-dose-only effect; inactive = no such curve, though single readings can be large or run the other way;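 note: % of control where 0% means no effect; miR-21 action dims this reporter so a rising signal means less miR-21 action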
#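 HeLa cells stably expressing CMV-driven firefly luciferase with a downstream miR-21 binding sequence, endogenously expressing miR-21, were treated with titrations (up to about 40uM final) for 48 hours at 37 degree Celsius. Luciferase luminescence was read after lysis.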
# G9a inh: blocks human histone lysine methyltransferase G9a. Q96KQ7. G9a H3K9 monomethylation, AlphaScreen, 2 h. Potency, µM (titrated, usually from 102 µM), inactives show top-dose activity, negative = inhibition, actives largely listed as inhibitors. actives 8.8% (n = 350,000). AID 504332; also: potency is read from the fitted curve at half-maximal effect; % is scaled to controls: 0 for no effect and ±100 for the full control effect; nearly all actives have a fitted effect of over 75% in size
#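 G9a (20 nM) preincubated 15 min RT with compounds, then 500 nM biotinylated H3K9 peptide and 20 uM SAM added; 2 h RT reaction. Monomethyl-H3K9 product detected by AlphaScreen with anti-H3K9me1 antibody, streptavidin donor and anti-rabbit IgG acceptor beads.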
# ALDH1A1 inh-1: blocks purified human ALDH1A1 activity; Purified ALDH1A1, NADH fluorescence, propionaldehyde substrate; actives 7.3% (n = 220,000); P00352; Potency, µM (series often up to 75.3 µM), for the others: top-dose activity, negative = inhibition, usual class: inhibitors; active = well fitted inhibition curve with a large enough effect, not every such curve was filed as active; inconclusive = small, poorly fitted or top-dose-only effect, or another doubt; inactive = no such curve, though single readings can be large or run the other way;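 also: potency is read from the fitted curve at half-maximal effect; plate controls were no enzyme wells and a reference inhibitor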
# KDM4E inh: JMJD2E (human) inhibition; B2RXH2; JMJD2E catalytic domain, FDH-coupled NADH fluorescence (FDH is formaldehyde dehydrogenase); Potency, µM (series often up to 57.1 µM), for inactives: at the top dose activity change, negative = inhibition, most hits filed as inhibitors; actives 1.6% (n = 230,000); active = well fitted inhibition curve with a large enough effect, not every such curve was filed as active; inconclusive = small, poorly fitted or top-dose-only effect, or another doubt; inactive = no such curve, though single readings can be large or run the other way;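 also: potency is read from the fitted curve at half-maximal effect; 0% = wells with enzyme and -100% = buffer wells without enzyme; nearly all actives have a fitted effect of over 50% in size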
# Lamin A splicing: modulators of lamin A splicing; HeLa LMNA splicing GFP/RFP minigene ratio, 48 h; Potency, µM (highest dose often 46.1 µM), without a hit: at the top dose ratio change, negative = inhibition, actives largely listed as inhibitors; actives 0.01% (n = 200,000); active = well fitted inhibition curve with a large enough effect in the signal ratio, with a control signal flat, not every such curve was filed as active; inconclusive = small, poorly fitted or top-dose-only effect, or effect the other way, or a change in a side signal; the % refers to the signal ratio; also: potency is read from the fitted curve at half-maximal effect; % is scaled to controls: 0 for no effect and ±100 for the full control effect
#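 S3 HeLa stable clones carrying a lamin A-EGFP splicing minigene plus DsRed2 were seeded at 600 cells/well in Opti-MEM with 2% FBS, pin-dosed and incubated 48 h at 37°C. Acumen cytometry (488 nm) gave the GFP/RFP total-intensity ratio.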
# Sfp PPTase inh: Sfp phosphopantetheinyl transferase inhibition; 310,000 tested, 3.5% active; Potency, µM, inactives show max response, negative = inhibition, hits mostly inhibitors; AID 1490; Q9F4F7; Biochemical Sfp PPTase activity, qHTS; active = well fitted inhibition curve with a large enough effect; inconclusive = small, poorly fitted or top-dose-only effect, or another doubt; inactive = no such curve, though single readings can be large or run the other way;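 also: the enzyme is Sfp with the accession as filed and its product quenches rhodamine fluorescence; potency is read from the fitted curve at half-maximal effect; 0% = enzyme reaction without inhibitor and -100% = no enzyme wells; top concentration of the series not given in the record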
#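 Compounds were incubated with enzyme (final 15 nM) for 15 min at room temperature before substrate addition started the reaction. Fluorescence at 525 nm excitation, 598 nm emission was recorded immediately and after 30 minutes.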
# ALDH1A1 inh-2: Confirms inhibition of human ALDH1A1 with counterscreen; purified ALDH1A1, NADH fluorescence, propionaldehyde/NAD+; actives 90% (n = 90); AID 493210; Potency, µM (series often up to 57.1 µM), for inactives: top-dose activity change, negative = inhibition, hits mostly inhibitors; shares compounds with ALDH1A1 inh-1; calls by dose curve
# Numbers without * were called inactive; u = inconclusive; x = not tested or not shown; [ ] = another dose, or the depositor's remark. Rows were chosen to be rich in hits. Some 13% of all compounds tested hit in one or more screens of this group. Unless noted, calls follow the shape of the dose curve; as a rule, active = well fitted curve in the direction sought with a large enough effect; inconclusive = small, poorly fitted or top-dose-only effect, or another doubt; inactive = no such curve, though single readings can be large; an effect the other way counts as inactive or inconclusive.
# The line under a structure holds: miR-21 FLuc	G9a inh	ALDH1A1 inh-1	KDM4E inh	Lamin A splicing	Sfp PPTase inh	ALDH1A1 inh-2
O=C(Nc1nc(-c2ccc(Cl)s2)cs1)c1ccco1
    -32.1%	39.8µM*	u	-8.1%	u	-3.9%	x
O=C(O)C1CCCCC1C(=O)Nc1nc(-c2ccc(Cl)s2)cs1 (stereo not drawn)
    -9.7%	44.7µM*	-132.5%	8.6%	x	22.4µM*	x
O=C(Nc1nc(-c2ccccc2)cs1)c1cccs1
    -20.6%	-6.0%	10.2%	4.5%	u	-2.0%	x
Cc1ccc(C(=O)c2sc(Nc3ccccc3)c(C#N)c2N)cc1
    -13.8%	u	u	-9.0%	3.0%	3.3%	x
N#Cc1c(Nc2ccccc2)s[nH]c1=O
    1.8%	12.6µM*	x	-0.8%	x	20µM*	x
O=C(CSc1nc2ccccc2c(=O)[nH]1)Nc1ccccc1C(F)(F)F
    0.8%	u	x	x	x	7.4%	x
N#Cc1c(Nc2ccccc2C(F)(F)F)s[nH]c1=O
    3.6%	14.1µM*	x	-2.6%	x	3.55µM*	x
O=C(CSc1nc2nn(-c3ccccc3)c(=O)c-2c2n1CCCCC2)c1ccc(O)c(O)c1
    x	-40.1%[2.33 µM]	x	x	x	x	x
CC1=C(Nc2ccc(C(=O)O)cc2)C(=O)c2ccccc2C1=O
    0.0%	u	x	x	x	-1.4%	x
COC1=C(Nc2ccccc2)C(=O)c2ccccc2C1=O
    -15.7%	11.2µM*	2.24µM*	3.9%	u	-13.2%	x
COC1=C(Nc2ccc(C)cc2)C(=O)c2ccccc2C1=O
    -50.2%	8.91µM*	5.01µM*	14.1µM*	u	-26.0%	x
Cc1ccc(NC(=O)N2CCc3c([nH]c4ccccc34)C2c2ccccc2F)c(Cl)c1 (stereo not drawn)
    21.8%	u	x	x	x	x	x
O=C1CCC/C1=c1\s/c(=C\c2cccnc2)c(=O)n1-c1ccccc1
    0.7%	u	6.31µM*	-2.7%	-10.2%	-22.2%	x
CCC(=O)Nc1nc2c(OC)ccc(OC)c2s1
    -5.1%	-24.1%	-4.7%	-3.9%	1.6%	2.6%	x
CCCC(=O)Nc1nc2c(OC)ccc(OC)c2s1
    -1.7%	-6.4%	15.8µM*	-20.9%	-1.9%	10.4%	x
COc1ccc(Nc2nc(-c3ccncc3)nc3ccccc23)cc1
    2.0%	12.4%	x	x	x	2.3%	x
COc1ccc(NC(c2ccccc2)c2ccncc2)cc1 (stereo not drawn)
    -11.2%	7.08µM*	x	x	x	u	x
COc1cc(NC(c2ccccc2)c2ccccc2)cc(OC)c1OC
    8.5%	39.8µM*	4.3%	-6.8%	x	-8.0%	x
O=C(CSc1nnnn1-c1ccc(Cl)cc1)NC(=O)Nc1ccc2c(c1)OCCO2
    -41.4%	1.8%[59 µM]	-1.1%	7.1%	-5.8%	-26.5%	x
O=C(CSc1nnnn1-c1ccccc1Cl)Nc1ccc2c(c1)OCCO2
    -14.4%	-41.6%[59 µM]	0.224µM*	-5.9%	u	20.7%	0.251µM*
O=C(Nc1ccc2[nH]c(=O)c(=O)[nH]c2c1)c1cccc(F)c1
    6.1%	17.0%[59 µM]	x	x	x	x	x
CCCCOc1ccc(C(=O)CCN2CCCCC2)cc1
    0.0%	10µM*	0.0447µM*	7.2%	u	-21.7%	0.794µM*
CCCOc1ccc(C(=O)CCCC(=O)c2ccc(OCCC)cc2)cc1
    -0.4%	x	x	x	x	14.9%	x
CS(=O)(=O)c1ccc(Cn2c3c(c4cc(F)cc(F)c42)CCC[C@H]3CC(=O)O)cc1
    x	x	0.112µM*	-25.5%	x	-8.5%	0.355µM*
CCSCCOC(=O)C1=C(C)N(C)C(=O)NC1c1ccc2c(c1)OCO2 (stereo not drawn)
    2.4%	-3.0%	x	x	x	10.3%	x
CN1C(=O)C2C3c4ccccc4C(c4ccccc43)[C@@H]2C1=O (stereo partly drawn)
    -1.8%	-7.7%	x	x	x	7.9%	x
O=C1C=CC(=O)C2=C1C1c3ccccc3C2c2ccccc21
    x	x	0.708µM*	14.1µM*	x	3.16µM*	0.562µM*
COc1ccc(NC(=O)C2CCCN(S(=O)(=O)c3ccc(Br)s3)C2)cc1 (stereo not drawn)
    0.7%	u	x	x	x	x	x
CC1CCN(Cc2nc3c(c(=O)n(C)c(=O)n3C)n2CCCc2ccccc2)CC1
    -1.4%	u	0.631µM*	4.3%	-7.8%	14.4%	0.501µM*
Cn1c(=O)c2c(nc(CN3CCOCC3)n2CCCc2ccccc2)n(C)c1=O
    -0.1%	-29.7%[59 µM]	-4.8%	-0.7%	-5.4%	19.7%	x
Cc1ccc(S(=O)(=O)/C=C/C#N)cc1
    x	1.58µM*	0.0562µM*	x	x	2.82µM*	0.0631µM*
Cc1cccc(Cn2c(N3CCCCC3C)nc3c2c(=O)[nH]c(=O)n3C)c1 (stereo not drawn)
    -25.9%	15.6%[59 µM]	0.282µM*	-4.1%	-3.6%	-2.7%	0.251µM*
O=C1OC[C@H](Cc2ccc3c(c2)OCO3)/C1=C\c1ccc2c(c1)OCO2
    x	9.0%[12.7 µM]	x	x	x	x	x
CCOc1ccc(CNC(=O)CC(C)n2nc(C)cc2C)cc1OC (stereo not drawn)
    29.5%	22.6%[59 µM]	x	x	-13.7%[46 µM]	x	x
C[C@H](Cc1ccc(O)c(O)c1)[C@@H](C)Cc1ccc(O)c(O)c1
    x	0.794µM*	0.159µM*	14.1µM*	u	x	2.24µM*
CC(C)N(C(=O)CN1C(=O)C(=O)c2ccccc21)c1ccccc1
    0.8%	17.0%	0.0282µM*	-9.9%	4.2%[46 µM]	6.1%	0.0355µM*
CN(C)C(CNC(=O)C1CCN(S(=O)(=O)c2ccccc2C(F)(F)F)CC1)Cc1ccccc1 (stereo not drawn)
    x	-1.9%	x	x	x	x	x
COCCN(C(=O)Cc1cccs1)C(C(=O)NCc1ccc(OC)cc1)c1ccc(C(C)C)cc1 (stereo not drawn)
    21.7%	29.6%[59 µM]	0.282µM*	-7.3%	-8.9%	-7.0%	0.251µM*
O=C(CN1CCN(S(=O)(=O)N2CCOCC2)CC1)Nc1cc(Cl)ccc1Cl
    8.0%	27.5%	x	x	x	5.9%	x
COc1cc(NC(=O)CN2CCN(S(=O)(=O)c3ccc(C(C)C)cc3)CC2)cc(OC)c1
    10.9%	-45.0%[12.7 µM]	2.24µM*	0.2%	0.4%	-1.6%	3.16µM*

# One compound at a time, as listed above.
# COc1cc(NC(=O)CN2CCN(S(=O)(=O)c3ccc(C(C)C)cc3)CC2)cc(OC)c1 as listed: miR-21 FLuc: 10.9%; G9a inh: -45.0%[12.7 µM]; ALDH1A1 inh-1: 2.24µM*; KDM4E inh: 0.2%; Lamin A splicing: 0.4%; Sfp PPTase inh: -1.6%; ALDH1A1 inh-2: 3.16µM*
# CCOc1ccc(CNC(=O)CC(C)n2nc(C)cc2C)cc1OC (stereo not drawn) as listed: miR-21 FLuc: 29.5%; G9a inh: 22.6%[59 µM]; ALDH1A1 inh-1: x; KDM4E inh: x; Lamin A splicing: -13.7%[46 µM]; Sfp PPTase inh: x; ALDH1A1 inh-2: x

# Next part.
# The line under a structure holds: miR-21 FLuc	G9a inh	ALDH1A1 inh-1	KDM4E inh	Lamin A splicing	Sfp PPTase inh	ALDH1A1 inh-2
CN(C)S(=O)(=O)c1ccc(NC(=O)CCCNC(=O)c2ccc(Cl)cc2)cc1
    3.3%	-0.2%	x	x	x	8.1%	x
CCCCCSc1nc2c(c(=O)[nH]c(=O)n2C)n1CCc1ccccc1
    5.1%	u	0.708µM*	2.9%	3.9%	10.9%	1.26µM*
CCOCCn1c(SCCCc2ccccc2)nc2c1c(=O)[nH]c(=O)n2C
    -20.0%	9.1%[59 µM]	-3.3%	-1.6%	-3.0%	5.9%	x
COc1ccc(-c2nc(CS(=O)CC(=O)NCc3ccc(Cl)cc3)c(C)o2)cc1OC (stereo not drawn)
    -5.6%	u	x	x	x	12.2%	x
